Assay results: patent US5413915A (priority 1991, dated 1995)

Columns and labels:
[1] = 1979 Registry and 1983-84 Supplement of NIOSH RTECS; cited from earlier work
[2] = discernible color within 24 hours, leuco-PRA detection element

Compound	Detector Response, threshold dose (rat liver microsomes; [2]) [micromols]	further results
Ni(II)	< 1	–
CN(N=O)C(=N)N[N+](=O)[O-]	–	Carcinogenic Status [1]: Positive
BHA	0.3	–
AgNO3	< 5	–
NNc1ccc([N+](=O)[O-])cc1[N+](=O)[O-]	0.01	–
NH2 OH	0.1	–
CCOP(=S)(CC)Sc1ccccc1 (stereo not shown)	–	Detector Response, threshold dose (rat liver microsomes; superscript a: first of two rat sources for microsomal material): 10-100 micromols

Read-outs that look alike come from different tables or passages of the source.
